Where two headings read alike, the source gives them in different places.
Legend:
BRM = BRM (Homo sapiens, UniProt P51531); assay: ATPase catalytic activity of BRM, ADP-Glo in vitro biochemical assay; settings: for IC50: read-out: BRM IC50, 30 nM BRM, 400 μM ATP; for Ratio* (BRG1 IC50 (μM) divided by BRM IC50 (μM)): selectivity ratio BRG1 IC50 / BRM IC50
BRG-1 = BRG-1 (Homo sapiens, UniProt P51532); assay: ATPase catalytic activity of BRG-1, ADP-Glo in vitro biochemical assay; settings: read-out: BRG1 IC50, 30 nM BRG-1, 400 μM ATP
[1] = ATPase catalytic activity, ADP-Glo

By UniProt entry, the sequences of proteins in these tests, tags left out.
UniProt P51531, whole entry: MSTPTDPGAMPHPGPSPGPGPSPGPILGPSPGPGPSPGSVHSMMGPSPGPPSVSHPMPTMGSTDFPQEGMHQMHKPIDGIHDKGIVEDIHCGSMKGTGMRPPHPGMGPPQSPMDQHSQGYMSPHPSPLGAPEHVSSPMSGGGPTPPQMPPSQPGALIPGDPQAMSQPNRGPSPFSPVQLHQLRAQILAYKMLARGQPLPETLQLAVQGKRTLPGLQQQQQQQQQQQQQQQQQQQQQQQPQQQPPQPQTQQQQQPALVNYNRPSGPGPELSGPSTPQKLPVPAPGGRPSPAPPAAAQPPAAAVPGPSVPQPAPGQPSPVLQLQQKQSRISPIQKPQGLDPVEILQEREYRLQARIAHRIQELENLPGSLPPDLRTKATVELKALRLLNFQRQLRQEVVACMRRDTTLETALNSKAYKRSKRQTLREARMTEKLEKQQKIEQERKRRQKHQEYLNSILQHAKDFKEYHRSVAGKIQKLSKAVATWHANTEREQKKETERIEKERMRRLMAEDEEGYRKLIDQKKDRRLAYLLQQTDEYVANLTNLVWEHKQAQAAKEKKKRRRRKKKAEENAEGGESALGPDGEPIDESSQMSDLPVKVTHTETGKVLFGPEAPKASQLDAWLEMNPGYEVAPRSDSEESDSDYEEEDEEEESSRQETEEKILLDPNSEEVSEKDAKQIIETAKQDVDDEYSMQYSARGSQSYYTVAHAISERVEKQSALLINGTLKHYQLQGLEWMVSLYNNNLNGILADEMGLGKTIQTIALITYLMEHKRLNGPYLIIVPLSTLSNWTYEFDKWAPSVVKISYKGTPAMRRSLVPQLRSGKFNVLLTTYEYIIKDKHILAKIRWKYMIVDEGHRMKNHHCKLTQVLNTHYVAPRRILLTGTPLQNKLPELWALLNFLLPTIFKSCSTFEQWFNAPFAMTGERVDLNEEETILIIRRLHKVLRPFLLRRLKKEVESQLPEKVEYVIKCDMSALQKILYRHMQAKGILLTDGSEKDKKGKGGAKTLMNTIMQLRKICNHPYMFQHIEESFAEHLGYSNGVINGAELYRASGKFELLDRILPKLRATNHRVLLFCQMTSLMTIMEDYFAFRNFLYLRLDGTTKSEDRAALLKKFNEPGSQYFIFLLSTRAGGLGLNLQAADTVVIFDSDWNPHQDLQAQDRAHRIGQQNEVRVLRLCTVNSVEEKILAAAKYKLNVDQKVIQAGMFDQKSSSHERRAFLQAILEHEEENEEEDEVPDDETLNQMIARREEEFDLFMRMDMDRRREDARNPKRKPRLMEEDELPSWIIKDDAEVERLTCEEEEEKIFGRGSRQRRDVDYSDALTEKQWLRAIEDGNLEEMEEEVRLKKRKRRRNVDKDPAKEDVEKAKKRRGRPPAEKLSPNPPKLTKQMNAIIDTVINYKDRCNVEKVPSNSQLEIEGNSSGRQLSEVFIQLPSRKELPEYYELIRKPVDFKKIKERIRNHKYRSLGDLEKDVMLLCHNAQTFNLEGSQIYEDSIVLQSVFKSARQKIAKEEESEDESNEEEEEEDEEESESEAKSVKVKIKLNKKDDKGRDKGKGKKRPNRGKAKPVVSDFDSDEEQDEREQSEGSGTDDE
UniProt P51532, whole entry: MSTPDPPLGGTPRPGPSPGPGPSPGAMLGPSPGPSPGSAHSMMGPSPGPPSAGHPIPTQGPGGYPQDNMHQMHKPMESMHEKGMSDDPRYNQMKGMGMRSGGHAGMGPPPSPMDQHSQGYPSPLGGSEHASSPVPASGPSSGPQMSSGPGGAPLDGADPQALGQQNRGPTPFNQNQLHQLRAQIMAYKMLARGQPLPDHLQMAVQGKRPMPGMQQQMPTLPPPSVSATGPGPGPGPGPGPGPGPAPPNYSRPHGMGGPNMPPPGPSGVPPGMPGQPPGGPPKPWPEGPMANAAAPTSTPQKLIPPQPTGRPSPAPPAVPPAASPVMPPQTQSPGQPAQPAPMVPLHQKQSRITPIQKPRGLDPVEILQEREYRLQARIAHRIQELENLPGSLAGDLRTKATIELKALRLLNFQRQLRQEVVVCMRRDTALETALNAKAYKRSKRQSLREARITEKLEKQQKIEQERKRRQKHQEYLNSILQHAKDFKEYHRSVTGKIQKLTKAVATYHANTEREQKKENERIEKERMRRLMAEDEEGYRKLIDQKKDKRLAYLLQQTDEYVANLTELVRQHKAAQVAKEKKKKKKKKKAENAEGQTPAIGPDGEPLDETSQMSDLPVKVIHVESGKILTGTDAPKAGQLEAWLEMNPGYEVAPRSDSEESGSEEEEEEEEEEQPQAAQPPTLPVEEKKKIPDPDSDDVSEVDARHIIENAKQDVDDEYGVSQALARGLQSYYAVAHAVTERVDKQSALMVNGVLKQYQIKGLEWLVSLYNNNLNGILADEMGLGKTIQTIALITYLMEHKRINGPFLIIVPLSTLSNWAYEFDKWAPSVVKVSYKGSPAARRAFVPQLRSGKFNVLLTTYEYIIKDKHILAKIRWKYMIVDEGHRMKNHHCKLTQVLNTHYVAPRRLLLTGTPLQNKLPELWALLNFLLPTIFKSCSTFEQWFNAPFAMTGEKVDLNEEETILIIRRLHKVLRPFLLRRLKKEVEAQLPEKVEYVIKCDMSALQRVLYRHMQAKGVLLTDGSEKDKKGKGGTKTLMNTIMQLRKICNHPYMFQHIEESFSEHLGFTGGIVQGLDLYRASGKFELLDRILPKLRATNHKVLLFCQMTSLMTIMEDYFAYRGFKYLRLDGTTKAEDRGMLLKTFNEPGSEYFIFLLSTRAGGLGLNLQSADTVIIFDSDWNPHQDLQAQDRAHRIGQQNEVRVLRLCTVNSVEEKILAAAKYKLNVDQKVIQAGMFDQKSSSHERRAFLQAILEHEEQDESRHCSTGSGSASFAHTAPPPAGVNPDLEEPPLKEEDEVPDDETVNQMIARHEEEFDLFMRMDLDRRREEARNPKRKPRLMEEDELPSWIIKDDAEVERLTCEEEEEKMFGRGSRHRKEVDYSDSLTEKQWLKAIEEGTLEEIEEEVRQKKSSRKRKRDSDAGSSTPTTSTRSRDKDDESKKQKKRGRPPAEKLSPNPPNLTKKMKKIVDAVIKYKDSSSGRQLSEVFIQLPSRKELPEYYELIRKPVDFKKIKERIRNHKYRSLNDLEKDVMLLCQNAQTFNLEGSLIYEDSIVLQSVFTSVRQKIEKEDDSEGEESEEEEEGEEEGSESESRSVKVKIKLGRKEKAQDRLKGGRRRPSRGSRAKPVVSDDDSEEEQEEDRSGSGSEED

Row | Structure (SMILES) | IC50 (BRM; ADP-Glo ATPase assay) | Ratio* (BRG1 IC50 (μM) divided by BRM IC50 (μM)) (BRM) | IC50 (BRG-1; ADP-Glo ATPase assay) | Ratio* (BRM; ratio of BRG1 IC50 to BRM IC50) | IC50 (BRM; [1]) | IC50 (BRG-1; [1]) | Ratio* (BRM; ratio BRG1 IC50 / BRM IC50)
1 | O=C(NCc1cc2nc(-c3cccc(C4CC4)c3)ccc2cn1)c1cnc2c(c1)S(=O)(=O)CCOC2 | 148 nM | 10.29 | 1520 nM | – | – | – | –
2 | C[C@@H]1CN(c2cccc(-c3ccc4nnc(CNC(=O)c5ccc6c(c5)S(=O)(=O)CCOC6)cc4n3)c2)C[C@H](C)O1 | – | – | – | 12.46 | 5.8 nM | 72.4 nM | –
3 | O=C(NCc1cc2nc(-c3cccc(N4CCC4)c3)ccc2nn1)c1ccc2c(c1)S(=O)(=O)CCOC2 | – | – | – | 18.06 | 13.9 nM | 251 nM | –
4 | C[C@@H]1CN(c2cccc(-c3ccc4cnc(CNC(=O)c5cnc6c(c5)S(=O)(=O)CCC5C6C5(F)F)cc4n3)n2)C[C@H](C)O1 (stereo partly drawn) | 19.7 nM | – | 43.5 nM | – | – | – | 2.21
5 | C[C@H]1COCc2ccc(C(=O)NCc3cc4nc(-c5cc(F)cc(OC(F)F)n5)ccc4cn3)cc2S1(=O)=O | – | – | – | 31.69 | 52.9 nM | 1680 nM | –
6 | C[C@@H]1CN(c2cccc(-c3ccc4cnc(CNC(=O)c5ccc6c(c5)S(=O)(=O)[C@@H](C)COC6)cc4c3)n2)C[C@H](C)O1 | – | – | – | 2.15 | 11 nM | 23.6 nM | –
7 | C[C@@H]1CN(c2cccc(-c3ccc4cnc(CNC(=O)c5ccc6c(c5)S(=O)(=O)CCCCO6)cc4n3)n2)C[C@H](C)O1 | – | – | – | 6.24 | 9.9 nM | 61.6 nM | –
8 | C[C@@H]1CN(c2cccc(-c3ccc4cnc(CNC(=O)c5ccc6c(c5)S(=O)(=O)C5(CC5)COC6)cc4n3)n2)C[C@H](C)O1 | 48.2 nM | – | 1080 nM | – | – | – | 22.41
9 | C[C@@H]1CN(c2cccc(-c3ccc4cnc(CNC(=O)c5cc(F)c6c(c5)S(=O)(=O)[C@@H](C)COC6)cc4c3)n2)C[C@H](C)O1 | – | – | – | 1.90 | 20 nM | 38.1 nM | –

The next lines start with the values.

Row | IC50 (BRM; ADP-Glo ATPase assay) | Ratio* (BRG1 IC50 (μM) divided by BRM IC50 (μM)) (BRM) | IC50 (BRG-1; ADP-Glo ATPase assay) | Ratio* (BRM; ratio of BRG1 IC50 to BRM IC50) | IC50 (BRM; [1]) | IC50 (BRG-1; [1]) | Ratio* (BRM; ratio BRG1 IC50 / BRM IC50) | Structure (SMILES)
10 | – | – | – | 18.38 | 38.8 nM | 713 nM | – | CC1CCN(C)c2nc(-c3ccc4cnc(CNC(=O)c5ccc6c(c5)S(=O)(=O)CCOC6)cc4n3)ccc21 (stereo not drawn)
11 | – | – | – | 8.59 | 408 nM | 3500 nM | – | CN(C)c1ccc2c(n1)N(c1ccc3cnc(CNC(=O)c4ccc5c(c4)S(=O)(=O)CCOC5)cc3n1)CCC2
12 | 135 nM | 5.56 | 751 nM | – | – | – | – | CN1CCc2ccc(-c3ccc4cnc(CNC(=O)c5ccc6c(c5)S(=O)(=O)CCOC6)cc4n3)cc21
13 | 236 nM | 3.06 | 722 nM | – | – | – | – | CN1CCc2cc(-c3ccc4cnc(CNC(=O)c5ccc6c(c5)S(=O)(=O)CCOC6)cc4n3)ccc21
14 | – | – | – | 6.63 | 258 nM | 1710 nM | – | CC1CCc2cccnc2N1c1ccc2cnc(CNC(=O)c3ccc4c(c3)S(=O)(=O)CCOC4)cc2n1 (stereo not drawn)

Reference: patent US20230416248A1, “COMPOUNDS AND USES THEREOF” (Foghorn Therapeutics Inc., priority 2020, published 2023)
